Kd data for one molecule are collected here from US20200023071A1 (INNATE PHARMA, published 2020).

The chains behind the UniProt entries cited, without tags or fusion partners. Residues count along the entry.
UniProt P55899, 24-297 limits assumed, chain 1 of 2: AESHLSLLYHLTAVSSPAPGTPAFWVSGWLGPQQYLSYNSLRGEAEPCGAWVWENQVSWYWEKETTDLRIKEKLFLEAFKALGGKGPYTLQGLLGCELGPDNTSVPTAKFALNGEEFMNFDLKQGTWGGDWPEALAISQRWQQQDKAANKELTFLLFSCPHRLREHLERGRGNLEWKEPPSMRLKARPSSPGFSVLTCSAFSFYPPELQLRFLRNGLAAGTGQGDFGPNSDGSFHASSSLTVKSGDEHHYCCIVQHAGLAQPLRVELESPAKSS
UniProt P08637, 17-208 F176V limits assumed: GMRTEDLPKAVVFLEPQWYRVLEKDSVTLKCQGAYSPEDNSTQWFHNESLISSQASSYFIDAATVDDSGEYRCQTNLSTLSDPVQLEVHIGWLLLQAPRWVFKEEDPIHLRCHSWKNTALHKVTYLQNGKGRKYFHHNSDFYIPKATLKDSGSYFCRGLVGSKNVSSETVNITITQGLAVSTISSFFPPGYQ

One assay concerns the target human FcRn (human, UniProt P55899, in part; P61769, in part). The assay can be described thus: SPR (Biacore T100), antibody immobilized on sensor chip, soluble FcR as analyte, steady state affinity model. On the technique in general: SPR reads the build-up and loss of mass on a sensor chip optically.
The target of assay [1] is recombinant human CD16a(V) (human, UniProt P08637, in part). The assay is described as above.
A further assay deals with T1, recombinant human CD32b (human, UniProt P31994 43-217).
T1 construct: Soluble analyte
T1 sequence (looked up): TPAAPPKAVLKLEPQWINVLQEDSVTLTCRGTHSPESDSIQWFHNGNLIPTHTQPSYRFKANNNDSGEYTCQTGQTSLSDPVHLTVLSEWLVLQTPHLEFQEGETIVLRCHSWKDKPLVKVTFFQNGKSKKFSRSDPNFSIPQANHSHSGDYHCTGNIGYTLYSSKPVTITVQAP
The assay is described as above.

In a further assay the target is T2, recombinant human CD32a (human, UniProt P12318 34-217).
T2 construct: Soluble analyte
T2 sequence (looked up): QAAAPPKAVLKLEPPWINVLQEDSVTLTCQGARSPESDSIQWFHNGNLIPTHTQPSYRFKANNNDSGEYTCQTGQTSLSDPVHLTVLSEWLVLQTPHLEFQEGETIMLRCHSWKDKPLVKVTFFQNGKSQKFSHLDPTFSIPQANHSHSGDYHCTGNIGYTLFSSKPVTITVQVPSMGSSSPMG
The assay is described as above.

The next assay deals with T3, recombinant human CD64 (human).
T3 construct: Cloned, produced and purified, and used as soluble analyte
In words: SPR (Biacore T100), antibody immobilized on sensor chip, soluble CD64 as analyte, 1:1 kinetic binding model.

Usually Kd stands for the free concentration of one partner at which half of the binding sites on the other are occupied at equilibrium, for simple one-to-one binding.

B1: antibody having a human IgG4 domain with S241P substitution (antibody)
chain: ASTKGPSVFPLAPCSRSTSESTAALGCLVKDYFPEPVTVSWNSGALTSGVHTFPAVLQSSGLYSLSSVVTVPSSSLGTKTYTCNVDHKPSNTKVDKRVESKYGPPCPPCPAPEFLGGPSVFLFPPKPKDTLMISRTPEVTCVVVDVSQEDPEVQFNWYVDGVEVHNAKTKPREEQFNSTYRVVSVLTVLHQDWLNGKEYKCKVSNKGLPSSIEKTISKAKGQPREPQVYTLPPSQEEMTKNQVSLTCLVKGFYPSDIAVEWESNGQPENNYKTTPPVLDSDGSFFLYSRLTVDKSRWQEGNVFSCSVMHEALHNHYTQKSLSLSLGK
As to B1, the Kd was 1.18 µM in the assay with human FcRn; 8.51 µM in assay [1]; 2.66 µM with recombinant human CD32b; 3.22 µM with recombinant human CD32a; 0.0968 µM with recombinant human CD64.
